The record followed here is patent EP1211260A1, “Peptides from Ag85 of mycobacterium and uses thereof” (priority 2000, dated 2002).

The test addresses Recombinant HLA-A*201 (Homo sapiens, UniProt P04439, D140Y/D185E/D98H/E176V/E277Q/G131W/G231S/I119V/I121R/I166T/I218V/L300P/L318F/N151K/N90K/P208A/P217A/Q86G/Q94H/R138H/R169H/T345S). Description: biochemical. Type of test: binding.

As for `CC(C)C[C@H](NC(=O)[C@H](Cc1ccccc1)NC(=O)[C@@H](NC(=O)[C@H](CCC(=O)O)NC(=O)[C@H](Cc1c[nH]c2ccccc12)NC(=O)[C@H](CCCCN)NC(=O)[C@H](Cc1ccc(O)cc1)NC(=O)[C@@H](NC(=O)[C@@H](N)CCC(N)=O)[C@@H](C)O)[C@@H](C)O)C(=O)O` [93-101], the IC50 came to 7 µM.

As to `CC(C)C[C@H](NC(=O)[C@H](Cc1ccccc1)NC(=O)[C@@H](NC(=O)[C@H](CCC(=O)O)NC(=O)[C@H](Cc1c[nH]c2ccccc12)NC(=O)[C@H](CCCCN)NC(=O)[C@H](Cc1ccc(O)cc1)NC(=O)[C@@H](NC(=O)[C@@H](N)CCC(N)=O)[C@@H](C)O)[C@@H](C)O)C(=O)N[C@H](C(=O)O)[C@@H](C)O` [93-102], the IC50 was found to be 4 µM.

By IC50 is commonly meant the concentration that inhibits the measured activity by half.
